Structures are written as SMILES. “And” between values parts separate entries of the source, which are not always exact repeats. Identical values can stand only once. Like-named read-outs stand apart in the source and are kept apart here.

Chains of the proteins cited; added tags and fusions are not shown. Lines headed by an entry give the natural chain unless they say otherwise; changes in a name come on top.
UniProt O00370: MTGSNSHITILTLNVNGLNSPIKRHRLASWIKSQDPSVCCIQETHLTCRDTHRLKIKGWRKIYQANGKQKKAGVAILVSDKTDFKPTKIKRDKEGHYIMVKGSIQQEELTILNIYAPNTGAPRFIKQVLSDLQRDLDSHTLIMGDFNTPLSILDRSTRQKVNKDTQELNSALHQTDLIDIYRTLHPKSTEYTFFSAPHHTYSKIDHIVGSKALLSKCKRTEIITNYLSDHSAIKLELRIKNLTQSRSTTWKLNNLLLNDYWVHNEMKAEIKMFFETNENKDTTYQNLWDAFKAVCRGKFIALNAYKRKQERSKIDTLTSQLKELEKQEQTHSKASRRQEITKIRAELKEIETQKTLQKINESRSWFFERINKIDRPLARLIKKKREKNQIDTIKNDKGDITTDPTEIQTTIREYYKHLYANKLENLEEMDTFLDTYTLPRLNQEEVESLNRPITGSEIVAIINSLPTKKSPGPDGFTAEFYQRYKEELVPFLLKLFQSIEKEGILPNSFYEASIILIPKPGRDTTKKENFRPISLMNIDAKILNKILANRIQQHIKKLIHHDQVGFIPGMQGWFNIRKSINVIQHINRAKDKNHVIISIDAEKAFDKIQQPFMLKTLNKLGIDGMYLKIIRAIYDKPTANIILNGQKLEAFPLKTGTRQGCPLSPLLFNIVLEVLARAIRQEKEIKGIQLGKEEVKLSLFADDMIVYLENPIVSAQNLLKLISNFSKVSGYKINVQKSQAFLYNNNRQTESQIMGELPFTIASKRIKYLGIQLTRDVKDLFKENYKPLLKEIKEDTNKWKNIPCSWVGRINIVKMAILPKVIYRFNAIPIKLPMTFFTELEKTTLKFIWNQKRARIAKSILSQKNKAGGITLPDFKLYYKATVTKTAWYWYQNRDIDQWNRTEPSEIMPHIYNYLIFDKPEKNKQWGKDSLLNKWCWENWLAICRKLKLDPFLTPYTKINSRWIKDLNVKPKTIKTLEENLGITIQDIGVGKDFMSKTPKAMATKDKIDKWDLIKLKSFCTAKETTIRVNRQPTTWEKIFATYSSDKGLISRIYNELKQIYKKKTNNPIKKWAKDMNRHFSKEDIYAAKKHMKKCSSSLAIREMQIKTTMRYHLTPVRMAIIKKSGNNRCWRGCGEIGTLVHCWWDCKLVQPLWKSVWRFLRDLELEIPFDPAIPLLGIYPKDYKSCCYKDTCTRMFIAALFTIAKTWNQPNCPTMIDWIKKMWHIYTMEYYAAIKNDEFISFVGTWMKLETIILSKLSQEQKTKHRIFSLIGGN

The target of test [1] is L1 EN (LINE-1 retrotransposon endonuclease domain) (Homo sapiens, UniProt O00370, N5T). Description: Fluorescent oligonucleotide EN nicking activity assay. The class given is biochemical.
In another test the target is EN (Homo sapiens, UniProt O00370, N5T). Description: Spectral shift binding assay (Monolith X) with fluorescently labeled EN.

As a reminder, the IC50 is the concentration that inhibits the measured activity by half. By Kd is commonly meant the equilibrium constant for the complex coming apart. With `COc1ccc2c(c1)C(=O)N(CCc1ccc(S(=O)(=O)NC(=O)NC3CCCCC3)cc1)C(=O)C2(C)C` [AD12], the IC50 is 578 µM and 573 µM and 539 µM in test [1] (Replicate 1-3 of the representative experiment of Fig. 2b, read-out: IC50 (μM), technical replicates); 563 µM in test [1] (average of 3 technical replicates, representative experiment of Fig. 2b, read-out: IC50 (μM), average); 622 µM and 563 µM and 829 µM in test [1] (independent experiments (Replicate 1-6), source data of Table 1, read-out: IC50 replicates); 671 ± 140 µM in test [1] (mean ± s.d., at least 3 independent experiments, read-out: IC50). The Kd on EN (independent experiments (Replicate 1-5), source data of Table 1, read-out: Kd replicates) was 736 µM and 367 µM and 1160 µM; at EN (mean ± s.d., at least 3 independent spectral shift experiments, N.D. = binding not detected, read-out: Kd), 756 ± 399 µM; at EN (spectral shift assay, Figure 3, Replicate 1, read-out: Kd, Replicate 1), 671 µM; on EN (spectral shift assay, Figure 3, Replicate 2, read-out: Kd, Replicate 2), 688 µM; at EN (spectral shift assay, Figure 3, Replicate 3, read-out: Kd, Replicate 3), 849 µM; on EN (spectral shift assay, Figure 3, average of 3 replicates, read-out: Kd, average), 736 µM.

These data come from publication PMC11078990, “Identification and characterization of small molecule inhibitors of the LINE-1 retrotransposon endonuclease” (Nature Communications, 2024).
